Laboratory results: patent US20200157156A1, “GRATELOUPIA CHIANGII-DERIVED LECTIN AND LECTIN GENE CODING FOR THE SAME” (priority 2018, published 2020)

Experiment: Cytotoxicity (cell viability, MTT method)
Protocol: The antiviral effect was determined through cell viability, and the like using a virus-induced cytopathic effect (CPE) inhibition method and an MTT method.

Substance	Toxicity CC50 [mg/L]
Concanavalin A	29.29
dextran sulfate 8000	>100
